{"sequences": {"note": "The chains behind the UniProt entries cited, without tags or fusion partners.", "UniProt Q15139, whole entry": "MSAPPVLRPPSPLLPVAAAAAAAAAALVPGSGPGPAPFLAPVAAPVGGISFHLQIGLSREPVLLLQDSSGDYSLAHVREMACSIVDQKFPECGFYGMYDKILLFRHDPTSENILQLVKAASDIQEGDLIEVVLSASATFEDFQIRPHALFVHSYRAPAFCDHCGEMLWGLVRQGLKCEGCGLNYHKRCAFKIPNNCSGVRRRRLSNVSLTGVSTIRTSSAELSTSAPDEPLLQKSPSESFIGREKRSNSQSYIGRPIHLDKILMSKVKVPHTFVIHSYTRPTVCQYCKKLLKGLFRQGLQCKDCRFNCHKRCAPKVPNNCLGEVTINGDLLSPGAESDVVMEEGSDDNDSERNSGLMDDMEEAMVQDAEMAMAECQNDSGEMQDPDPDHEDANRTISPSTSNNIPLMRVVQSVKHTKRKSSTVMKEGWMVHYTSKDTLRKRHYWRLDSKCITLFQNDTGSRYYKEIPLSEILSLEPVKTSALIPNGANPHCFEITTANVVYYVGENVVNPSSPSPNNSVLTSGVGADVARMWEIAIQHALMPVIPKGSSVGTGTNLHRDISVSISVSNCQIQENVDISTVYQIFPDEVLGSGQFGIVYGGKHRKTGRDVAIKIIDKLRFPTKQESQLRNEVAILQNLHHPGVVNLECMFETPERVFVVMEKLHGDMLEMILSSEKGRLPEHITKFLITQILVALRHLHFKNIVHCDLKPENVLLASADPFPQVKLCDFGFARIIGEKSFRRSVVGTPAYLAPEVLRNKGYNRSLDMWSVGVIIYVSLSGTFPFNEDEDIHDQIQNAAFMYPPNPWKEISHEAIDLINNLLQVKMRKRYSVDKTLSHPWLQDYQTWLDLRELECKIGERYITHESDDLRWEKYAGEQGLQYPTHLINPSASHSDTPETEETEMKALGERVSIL"}, "source": "PubChem BioAssay AID797", "about": "(University of Pittsburgh Molecular Library Screening Center, 2007)", "note": "This is a selection; strong and weak results do not stand in their true shares. The source made the active and inactive calls. No stated cut-off is given here; in the data, active means inhibition above about 50%; inactive means the rest."}
{"target": "Serine/threonine-protein kinase D1 (Homo sapiens) (UniProt Q15139)", "experiment": "protein kinase D1 activity blockers – biochemical, fluorescence polarization (AID 797)", "conditions": "PKD1 kinase fluorescence polarization assay; stronger effect = higher value; concentration not given here"}
{"compound": "COc1ccc(C(=O)NCC2(N3CCOCC3)CCCCC2)cc1OC", "inhibition": "inactive: 4.68%"}
{"compound": "N/C(=N\\O)c1c(N)no[n+]1[O-]", "inhibition": "inactive: -14.7%"}
{"compound": "O=C(OC1CN2CCC1CC2)C1c2ccccc2C=Cc2ccccc21", "note": "(stereo not given)", "inhibition": "inactive: -13.8%"}
{"compound": "N#Cc1ccc(C(=O)NCC2(N3CCCCC3)CCCCC2)cc1", "inhibition": "inactive: -7.25%"}
{"compound": "c1ccc(CN2CCC(Nc3ccccc3)CC2)cc1", "inhibition": "inactive: -2.46%"}
{"compound": "CCN1CCC(Nc2cccc(F)c2)CC1", "inhibition": "inactive: -10.3%"}
{"compound": "CN(C)c1ccc(C(=O)NCC2(N3CCCCC3)CCCCC2)cc1", "inhibition": "inactive: -10.3%"}
{"compound": "CCOc1ncccc1C(=O)NCC1(N2CCOCC2)CCCCC1", "inhibition": "inactive: -10.3%"}
{"compound": "CC(C)(C)OC(=O)N1CCC(Nc2ccccc2)CC1", "inhibition": "inactive: -3.31%"}
{"compound": "COc1cc(OC)cc(C(=O)NCC2(N3CCOCC3)CCCCC2)c1", "inhibition": "inactive: -8.36%"}
{"compound": "CCC(CO)(C(=O)OC1CN2CCC1CC2)c1ccccc1", "note": "(stereo not given)", "inhibition": "inactive: -7.01%"}
{"compound": "COc1ccc(C(=O)NCC2(N3CCCCC3)CCCCC2)c(OC)c1OC", "inhibition": "inactive: 0.31%"}
{"compound": "O=C(NCC1(N2CCOCC2)CCCCC1)c1cc2ccccc2o1", "inhibition": "inactive: -6.27%"}
{"compound": "O=C(OC1CN2CCC1CC2)C1c2ccccc2Oc2ccccc21", "note": "(stereo not given)", "inhibition": "inactive: -1.06%"}
{"compound": "CCOC(=O)N1CCC(Nc2ccc(OC)cc2)CC1", "inhibition": "inactive: -0.54%"}
{"compound": "COc1ccc(NC2CCN(CCc3ccccc3)CC2)c(OC)c1", "inhibition": "inactive: 1.48%"}
{"compound": "N#CC1(Nc2ccccc2)CCN(CCc2ccccc2)CC1", "inhibition": "inactive: 9.42%"}
{"compound": "O=C(NCC1(N2CCCCC2)CCCCC1)c1cccc([N+](=O)[O-])c1", "inhibition": "inactive: -1.56%"}
{"compound": "O=C(NCC1(N2CCOCC2)CCCCC1)c1cc(=O)[nH]c2ccccc12", "inhibition": "inactive: -7.75%"}
{"compound": "COc1ccc(NC2CCN(C(=O)OC(C)(C)C)CC2)cc1", "inhibition": "inactive: -6.58%"}
{"compound": "CN1CCN(CCOC(=O)C(O)(c2ccccc2)c2ccccc2)CC1", "inhibition": "inactive: -9.08%"}
{"compound": "CC(C)c1ccc(NC2CCN(C(=O)OC(C)(C)C)CC2)cc1", "inhibition": "inactive: -4.04%"}
{"compound": "CN(C)c1cccc(C(=O)NCC2(N3CCCCC3)CCCCC2)c1", "inhibition": "inactive: 0.26%"}
{"compound": "COc1ccc(CN(CCCl)CCCl)cc1Cl", "inhibition": "inactive: -3.12%"}
{"compound": "CN1CCC(Nc2cccc(F)c2)CC1", "inhibition": "inactive: 5.38%"}
